According to PubChem BioAssay (EPA / NIEHS):
Only a part is listed here, and it is no random draw. Calls of active or inactive are those of the source. The calls were made as follows: active = hit-call score of the fitted dose curve at least 0.9, where 1 is the maximum; inactive = score below 0.9.

Sequences of proteins named here, by UniProt entry; tags and fusion partners are left off.
UniProt P26367, whole entry: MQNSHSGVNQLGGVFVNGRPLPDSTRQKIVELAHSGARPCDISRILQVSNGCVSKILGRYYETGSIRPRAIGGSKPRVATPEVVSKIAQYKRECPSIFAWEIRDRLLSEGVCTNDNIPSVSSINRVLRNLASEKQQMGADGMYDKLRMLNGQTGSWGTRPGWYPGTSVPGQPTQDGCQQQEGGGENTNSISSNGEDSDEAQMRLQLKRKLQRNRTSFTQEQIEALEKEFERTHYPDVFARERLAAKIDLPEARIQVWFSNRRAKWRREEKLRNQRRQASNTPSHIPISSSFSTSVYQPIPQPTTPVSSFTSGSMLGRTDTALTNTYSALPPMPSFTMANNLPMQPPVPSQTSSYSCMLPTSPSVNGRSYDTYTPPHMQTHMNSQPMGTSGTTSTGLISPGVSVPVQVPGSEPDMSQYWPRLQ
UniProt P08047, whole entry: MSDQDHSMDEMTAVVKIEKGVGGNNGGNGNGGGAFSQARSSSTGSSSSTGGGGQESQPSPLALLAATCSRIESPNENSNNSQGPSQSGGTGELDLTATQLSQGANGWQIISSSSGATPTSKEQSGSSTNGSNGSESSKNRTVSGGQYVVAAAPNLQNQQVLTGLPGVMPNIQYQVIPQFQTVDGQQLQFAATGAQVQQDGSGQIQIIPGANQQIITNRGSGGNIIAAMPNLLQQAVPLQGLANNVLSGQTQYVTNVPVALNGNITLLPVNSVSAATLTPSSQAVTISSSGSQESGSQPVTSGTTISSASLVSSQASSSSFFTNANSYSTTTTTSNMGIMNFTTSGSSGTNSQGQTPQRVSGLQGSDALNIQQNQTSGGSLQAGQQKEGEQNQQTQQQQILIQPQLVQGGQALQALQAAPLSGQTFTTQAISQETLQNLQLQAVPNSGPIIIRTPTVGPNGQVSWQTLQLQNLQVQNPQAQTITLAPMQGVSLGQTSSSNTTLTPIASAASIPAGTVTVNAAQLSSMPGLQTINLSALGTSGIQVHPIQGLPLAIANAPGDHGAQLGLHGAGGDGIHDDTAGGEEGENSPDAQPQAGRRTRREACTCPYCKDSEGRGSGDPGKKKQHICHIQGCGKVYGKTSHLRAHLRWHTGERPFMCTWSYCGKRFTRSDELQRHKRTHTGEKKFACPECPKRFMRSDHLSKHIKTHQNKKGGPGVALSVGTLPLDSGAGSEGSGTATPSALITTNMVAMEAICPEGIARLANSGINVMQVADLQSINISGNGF
UniProt P40763, whole entry: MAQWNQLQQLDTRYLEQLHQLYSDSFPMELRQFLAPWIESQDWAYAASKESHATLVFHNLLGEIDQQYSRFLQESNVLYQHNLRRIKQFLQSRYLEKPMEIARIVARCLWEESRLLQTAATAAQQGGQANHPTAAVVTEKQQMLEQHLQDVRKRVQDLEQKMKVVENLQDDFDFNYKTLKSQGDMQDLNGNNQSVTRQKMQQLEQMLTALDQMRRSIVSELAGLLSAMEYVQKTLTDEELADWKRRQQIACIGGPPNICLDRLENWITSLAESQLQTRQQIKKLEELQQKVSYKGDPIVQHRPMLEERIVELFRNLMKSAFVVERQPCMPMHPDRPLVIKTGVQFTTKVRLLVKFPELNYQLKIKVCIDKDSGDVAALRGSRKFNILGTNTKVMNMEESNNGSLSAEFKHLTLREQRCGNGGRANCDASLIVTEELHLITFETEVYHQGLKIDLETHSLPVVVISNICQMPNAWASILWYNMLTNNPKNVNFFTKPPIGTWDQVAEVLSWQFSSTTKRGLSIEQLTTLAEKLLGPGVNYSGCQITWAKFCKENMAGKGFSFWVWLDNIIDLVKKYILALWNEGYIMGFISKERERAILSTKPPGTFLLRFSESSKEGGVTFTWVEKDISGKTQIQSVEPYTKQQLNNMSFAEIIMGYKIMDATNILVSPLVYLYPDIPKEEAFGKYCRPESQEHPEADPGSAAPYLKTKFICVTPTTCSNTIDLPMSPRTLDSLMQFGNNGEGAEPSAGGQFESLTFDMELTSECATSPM

system: not listed separately; test: ATG_PBREM_CIS: Attagene CIS-FACTORIAL HepG2 Assay for human Phenobarbital-responsive Enhancer Module (PBREM) (AID 2282955); conditions: HepG2 PBREM cis-reporter, Attagene multiplexed transcription; actives raise or lower the signal
Procedure, shortened: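 Reporter mRNA read by RT-PCR, 6-FAM primer extension, HpaI digestion and capillary electrophoresis. Transfected HepG2 cells, 24 h compound exposure. Gain or loss of signal fitted bidirectionally relative to DMSO baseline.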

Compound	outcome
CCOP(=O)(Cl)Cl	inactive
ClCCOP(OCCCl)OCCCl	inactive
CC(C)OP(OC(C)C)OC(C)C	inactive
O=[N+]([O-])c1ccccc1[N+](=O)[O-]	inactive
ClCCNCCCl	inactive

biological target: Paired box protein Pax-6 (Homo sapiens) (UniProt P26367); test: ATG_Pax6_CIS: Attagene CIS-FACTORIAL HepG2 Assay for human Paired Box 6 (PAX6) (AID 2282956); conditions: HepG2 CIS-FACTORIAL PAX6 reporter transcription, RNA readout; actives raise or lower the signal
Method: (§1) ATG_CIS is a cell-based, multiplexed-readout assay that uses HepG2, a human liver cell line, with measurements taken at 24 hours after chemical dosing in a 24-well plate.ATG_Pax6_CIS is one of 52 assay component(s) measured or calculated from the ATG_CIS assay. It is designed to make measurements of mRNA induction, a form of inducible reporter, as detected with fluorescence intensity signals by Reverse transcription polymerase chain reaction (RT-PCR) and Capillary electrophoresis technology.Data from the assay component ATG_Pax6_CIS was analyzed into 1 assay endpoint. This assay endpoint, ATG_Pax6_CIS, was analyzed with bidirectional fitting relative to DMSO as the negative control and baseline of activity. Using a type of inducible reporter, measures of mRNA for gain or loss-of-signal activity can be used to understand the reporter gene at the transcription factor-level as they relate to the gene PAX6. Furthermore, this assay endpoint can be referred to as a primary readout, because this assay has produced multiple assay endpoints where this one serves a reporter gene function. To generalize the intended target to other relatable targets, this assay endpoint is annotated to the dna binding intended target family, where the subfamily is paired box protein.
(§2) Human liver HepG2 cells are transiently transfected with multiple reporter transcription units (MRTUs) in 6-well plates using FuGene 6 reagent (Roche; 3 ml FuGene/1 mg DNA). The MRTU constructs are regulated by a cis-regulating element (promoter). […] A major difference between the CIS and TRANS system is that in CIS activities of endogenous TFs are measured, whereas the TRANS assay evaluates changes in activities of exogenous, chimeric NR-Gal4 proteins. […] At the end of 24 hour incubation, total RNA was isolated using TriZol reagent (Invitrogen). The isolated RNA is then reverse-transcribed using oligo(dT) primer and Mo-MLV reverse transcriptase (Invitrogen) with DNAse I (Ambion) treatment for 30 min. The one-tenth of the produced cDNA was amplified by PCR using Taq DNA polymerase (Invitrogen) and two reporter sequence-specific primers. The PCR products were fluorescently labeled by primer extension with 6-arboxyfluorescein (6-FAM) 5'-labeled reporter sequence-specific primer (2 min at 95 C, 20 s at 68 C and 10 min at 72 C) and these products were digested with 5U of HpaI (New England Biolabs) for 2h at 37 C. The fragments were purified using Qiaquick PCR columns (Qiagen), analyzed on an ABI 3130xL genetic analyzer (Applied Biosystems) with peak positions identified by using a set of X-rhodamine (ROX)-labeled MapMarker1000 molecular weight standards (BioVentures). The raw capillary electrophoresis data was processed using Attagraph software (Attagene).

Compound	outcome
CCOP(=O)(Cl)Cl	inactive
ClCCOP(OCCCl)OCCCl	inactive
CC(C)OP(OC(C)C)OC(C)C	inactive
O=[N+]([O-])c1ccccc1[N+](=O)[O-]	inactive
ClCCNCCCl	inactive

system: not listed separately; test: ATG_PXRE_CIS: Attagene CIS-FACTORIAL HepG2 Assay for human Pregnane X Receptor Element (PXRE) (AID 2282957); conditions: HepG2 Attagene CIS-FACTORIAL PXRE reporter, mRNA; actives raise or lower the signal
Procedure, shortened: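 Bidirectional activity, baselined to DMSO, derived from reporter mRNA fluorescence (RT-PCR plus capillary electrophoresis) in HepG2 cells bearing cis-promoter reporter units, 24 h exposure.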

Compound	outcome	AC50
CCOP(=O)(Cl)Cl	inactive	–
ClCCOP(OCCCl)OCCCl	inactive	–
CC(C)OP(OC(C)C)OC(C)C	–	active: 44.6 µM
O=[N+]([O-])c1ccccc1[N+](=O)[O-]	inactive	–
ClCCNCCCl	–	active: 27 µM

system: not listed separately; test: ATG_PPRE_CIS: Attagene CIS-FACTORIAL HepG2 Assay for human Peroxisome Proliferator-activated Response Element (PPRE) (AID 2282958); conditions: HepG2 PPRE cis-element reporter, Attagene transcription factor profiling; actives raise or lower the signal
Procedure, shortened: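 Read-out: fluorescent reporter mRNA fragments resolved by capillary electrophoresis after RT-PCR. HepG2 cells carried transiently transfected PPRE-driven cis reporter constructs and were dosed for 24 h; gain or loss of signal fitted relative to DMSO.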

Compound	outcome
CCOP(=O)(Cl)Cl	inactive
ClCCOP(OCCCl)OCCCl	inactive
CC(C)OP(OC(C)C)OC(C)C	inactive
O=[N+]([O-])c1ccccc1[N+](=O)[O-]	inactive
ClCCNCCCl	inactive

system: not listed separately; test: ATG_RORE_CIS: Attagene CIS-FACTORIAL HepG2 Assay for human RAR-related Orphan Receptor Element (RORE) (AID 2282959); conditions: HepG2 Attagene cis-factorial RORE reporter, mRNA; actives raise or lower the signal
Method: as §1, with “plate.ATG_RORE_CIS” for “plate.ATG_Pax6_CIS”, “ATG_RORE_CIS” for “ATG_Pax6_CIS”, “ATG_RORE_CIS,” for “ATG_Pax6_CIS,”, “RORA and RORB and RORC.” for “PAX6.”, “nuclear receptor” for “dna binding”, “orphan.” for “paired box protein.”
as §2

Compound	outcome
CCOP(=O)(Cl)Cl	inactive
ClCCOP(OCCCl)OCCCl	inactive
CC(C)OP(OC(C)C)OC(C)C	inactive
O=[N+]([O-])c1ccccc1[N+](=O)[O-]	inactive
ClCCNCCCl	inactive

system: not listed separately; test: ATG_Sox_CIS: Attagene CIS-FACTORIAL HepG2 Assay for human SRY-box transcription factor (SOX) (AID 2282960); conditions: HepG2 Attagene cis-factorial SOX reporter, mRNA; actives raise or lower the signal
Procedure, shortened: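 Read-out: fluorescent RT-PCR products of SOX1-linked reporter transcripts resolved by capillary electrophoresis, fitted bidirectionally against DMSO. Transiently transfected HepG2 cells, 24 h after chemical exposure, endogenous transcription factor activity.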

Compound	outcome
CCOP(=O)(Cl)Cl	inactive
ClCCOP(OCCCl)OCCCl	inactive
CC(C)OP(OC(C)C)OC(C)C	inactive
O=[N+]([O-])c1ccccc1[N+](=O)[O-]	inactive
ClCCNCCCl	inactive

biological target: Transcription factor Sp1 (Homo sapiens) (UniProt P08047); test: ATG_Sp1_CIS: Attagene CIS-FACTORIAL HepG2 Assay for human Specificity Protein 1 (Sp1) (AID 2282961); conditions: HepG2 Sp1 cis-reporter transcription, actives raise or lower the signal
Procedure, shortened: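 Read-out: fluorescence of 6-FAM-labeled, HpaI-digested RT-PCR products separated by capillary electrophoresis. HepG2 cells carried transfected cis-element reporter units and were exposed to chemicals for 24 h; gain or loss of signal fitted relative to DMSO.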

Compound	outcome
CCOP(=O)(Cl)Cl	inactive
ClCCOP(OCCCl)OCCCl	inactive
CC(C)OP(OC(C)C)OC(C)C	inactive
O=[N+]([O-])c1ccccc1[N+](=O)[O-]	inactive
ClCCNCCCl	inactive

system: not listed separately; test: ATG_SREBP_CIS: Attagene CIS-FACTORIAL HepG2 Assay for human Sterol Regulatory Element Binding (SREBP) (AID 2282962); conditions: HepG2 Attagene cis-factorial SREBP reporter, mRNA; actives raise or lower the signal
Procedure, shortened: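 Endogenous factor activity is measured in HepG2 through multiplexed reporter units under cis-element control. Following a 24 h incubation, reporter transcripts are reverse-transcribed, PCR-amplified and sized by capillary electrophoresis; activity is fitted in both directions relative to DMSO.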

Compound	outcome
CCOP(=O)(Cl)Cl	inactive
ClCCOP(OCCCl)OCCCl	inactive
CC(C)OP(OC(C)C)OC(C)C	inactive
O=[N+]([O-])c1ccccc1[N+](=O)[O-]	inactive
ClCCNCCCl	inactive

biological target: Signal transducer and activator of transcription 3 (Homo sapiens) (UniProt P40763); test: ATG_STAT3_CIS: Attagene CIS-FACTORIAL HepG2 Assay for human Signal Transducer and Activator of Transcription 3 (STAT3) (AID 2282963); conditions: HepG2, Attagene cis-factorial STAT3 reporter transcription; actives raise or lower the signal
Procedure, shortened: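 HepG2, MRTU-transfected, 24 h dosing. RNA → RT → PCR → FAM label → HpaI → CE. Bidirectional fit vs DMSO.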

Compound	outcome
CCOP(=O)(Cl)Cl	inactive
ClCCOP(OCCCl)OCCCl	inactive
CC(C)OP(OC(C)C)OC(C)C	inactive
O=[N+]([O-])c1ccccc1[N+](=O)[O-]	inactive
ClCCNCCCl	inactive

system: not listed separately; test: ATG_TA_CIS: Attagene CIS-FACTORIAL HepG2 Assay for human TA Basal Promoter (AID 2282964); conditions: HepG2 Attagene CIS-factorial TA basal promoter reporter; actives raise or lower the signal
Procedure, shortened: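 Steps: transfect HepG2 with MRTUs; dose 24 h; isolate RNA, DNase-treat, reverse-transcribe; PCR and FAM-label reporter cDNA; digest with HpaI 2h at 37 C; run capillary electrophoresis. Activity fitted both directions against DMSO.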

Compound	outcome
CCOP(=O)(Cl)Cl	inactive
ClCCOP(OCCCl)OCCCl	inactive
CC(C)OP(OC(C)C)OC(C)C	inactive
O=[N+]([O-])c1ccccc1[N+](=O)[O-]	inactive
ClCCNCCCl	inactive
